Data: publication PMC8352932, “Targeted activity of the small molecule kinase inhibitor Pz-1 towards RET and TRK kinases” (Scientific Reports, 2021)
Where “and” joins values, the source holds several entries; their conditions need not be identical. Equal entries are not always repeated.

Sequences of proteins named here, by UniProt entry; tags and fusion partners are left off. A change or cut given only in a name is not applied to a line headed by its entry. Residues count along the entry.
UniProt P04629, 33-796 limits assumed: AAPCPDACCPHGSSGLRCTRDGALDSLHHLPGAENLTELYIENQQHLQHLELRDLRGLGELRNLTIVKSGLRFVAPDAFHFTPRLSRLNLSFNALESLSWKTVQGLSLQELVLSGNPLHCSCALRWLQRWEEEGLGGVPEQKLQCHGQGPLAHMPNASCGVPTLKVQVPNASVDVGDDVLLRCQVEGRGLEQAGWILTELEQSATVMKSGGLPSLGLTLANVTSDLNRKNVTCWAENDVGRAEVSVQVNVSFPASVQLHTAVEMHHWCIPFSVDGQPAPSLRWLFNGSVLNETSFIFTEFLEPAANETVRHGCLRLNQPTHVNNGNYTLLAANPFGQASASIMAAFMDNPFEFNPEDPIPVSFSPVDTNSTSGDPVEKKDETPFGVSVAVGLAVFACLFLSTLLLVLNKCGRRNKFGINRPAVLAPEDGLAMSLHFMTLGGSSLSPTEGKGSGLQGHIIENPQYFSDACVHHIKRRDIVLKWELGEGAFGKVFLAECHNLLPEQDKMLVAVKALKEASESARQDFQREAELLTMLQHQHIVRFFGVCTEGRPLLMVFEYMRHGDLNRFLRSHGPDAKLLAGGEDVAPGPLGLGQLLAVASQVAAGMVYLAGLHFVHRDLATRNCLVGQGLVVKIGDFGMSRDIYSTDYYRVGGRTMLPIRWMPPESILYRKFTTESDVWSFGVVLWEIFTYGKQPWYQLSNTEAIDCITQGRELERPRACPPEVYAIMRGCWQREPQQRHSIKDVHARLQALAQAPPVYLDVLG
UniProt P35918, 20-1345 limits assumed: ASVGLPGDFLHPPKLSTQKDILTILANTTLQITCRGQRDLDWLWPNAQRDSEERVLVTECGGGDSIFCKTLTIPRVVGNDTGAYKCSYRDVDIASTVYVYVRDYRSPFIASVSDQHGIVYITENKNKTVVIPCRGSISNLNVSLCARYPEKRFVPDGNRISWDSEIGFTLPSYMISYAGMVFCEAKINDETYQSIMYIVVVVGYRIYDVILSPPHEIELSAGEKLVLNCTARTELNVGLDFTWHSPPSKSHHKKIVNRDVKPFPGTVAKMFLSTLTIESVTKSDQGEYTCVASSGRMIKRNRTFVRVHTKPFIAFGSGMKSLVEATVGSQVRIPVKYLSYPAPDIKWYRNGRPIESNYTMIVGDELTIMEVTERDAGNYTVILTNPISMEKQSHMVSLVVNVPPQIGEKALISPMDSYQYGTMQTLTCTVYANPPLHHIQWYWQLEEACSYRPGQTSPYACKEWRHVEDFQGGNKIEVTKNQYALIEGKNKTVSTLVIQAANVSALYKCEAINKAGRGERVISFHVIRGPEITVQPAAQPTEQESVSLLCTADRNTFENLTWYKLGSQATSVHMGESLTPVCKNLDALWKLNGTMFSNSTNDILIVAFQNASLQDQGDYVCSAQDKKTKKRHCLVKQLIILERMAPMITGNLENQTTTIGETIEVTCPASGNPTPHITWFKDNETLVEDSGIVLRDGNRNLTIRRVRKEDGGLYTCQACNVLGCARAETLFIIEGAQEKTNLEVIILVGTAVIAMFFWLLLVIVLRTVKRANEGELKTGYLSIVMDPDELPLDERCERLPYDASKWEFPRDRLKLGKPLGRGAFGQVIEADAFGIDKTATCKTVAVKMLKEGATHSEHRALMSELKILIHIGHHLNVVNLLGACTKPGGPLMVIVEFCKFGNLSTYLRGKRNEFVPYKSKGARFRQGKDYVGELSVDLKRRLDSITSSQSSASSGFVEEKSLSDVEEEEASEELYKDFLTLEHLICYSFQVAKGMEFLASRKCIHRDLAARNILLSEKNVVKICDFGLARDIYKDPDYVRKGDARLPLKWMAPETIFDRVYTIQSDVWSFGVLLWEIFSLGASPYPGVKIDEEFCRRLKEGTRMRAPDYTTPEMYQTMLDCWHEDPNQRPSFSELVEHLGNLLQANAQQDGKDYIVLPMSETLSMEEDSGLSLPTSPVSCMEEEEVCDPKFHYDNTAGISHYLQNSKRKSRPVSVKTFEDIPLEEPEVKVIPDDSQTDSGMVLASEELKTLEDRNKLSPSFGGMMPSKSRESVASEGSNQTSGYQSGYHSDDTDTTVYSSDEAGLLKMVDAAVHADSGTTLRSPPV
UniProt P07949, 713-1063 limits assumed: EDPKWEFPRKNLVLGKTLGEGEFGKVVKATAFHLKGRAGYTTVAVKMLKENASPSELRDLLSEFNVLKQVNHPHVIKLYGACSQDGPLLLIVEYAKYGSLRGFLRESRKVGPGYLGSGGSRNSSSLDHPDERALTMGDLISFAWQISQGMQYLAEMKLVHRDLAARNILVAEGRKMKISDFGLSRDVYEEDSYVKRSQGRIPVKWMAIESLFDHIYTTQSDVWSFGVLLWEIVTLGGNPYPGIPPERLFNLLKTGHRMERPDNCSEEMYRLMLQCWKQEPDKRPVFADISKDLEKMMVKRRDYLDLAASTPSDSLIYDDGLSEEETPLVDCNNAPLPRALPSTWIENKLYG
UniProt Q16620, 32-822 limits assumed: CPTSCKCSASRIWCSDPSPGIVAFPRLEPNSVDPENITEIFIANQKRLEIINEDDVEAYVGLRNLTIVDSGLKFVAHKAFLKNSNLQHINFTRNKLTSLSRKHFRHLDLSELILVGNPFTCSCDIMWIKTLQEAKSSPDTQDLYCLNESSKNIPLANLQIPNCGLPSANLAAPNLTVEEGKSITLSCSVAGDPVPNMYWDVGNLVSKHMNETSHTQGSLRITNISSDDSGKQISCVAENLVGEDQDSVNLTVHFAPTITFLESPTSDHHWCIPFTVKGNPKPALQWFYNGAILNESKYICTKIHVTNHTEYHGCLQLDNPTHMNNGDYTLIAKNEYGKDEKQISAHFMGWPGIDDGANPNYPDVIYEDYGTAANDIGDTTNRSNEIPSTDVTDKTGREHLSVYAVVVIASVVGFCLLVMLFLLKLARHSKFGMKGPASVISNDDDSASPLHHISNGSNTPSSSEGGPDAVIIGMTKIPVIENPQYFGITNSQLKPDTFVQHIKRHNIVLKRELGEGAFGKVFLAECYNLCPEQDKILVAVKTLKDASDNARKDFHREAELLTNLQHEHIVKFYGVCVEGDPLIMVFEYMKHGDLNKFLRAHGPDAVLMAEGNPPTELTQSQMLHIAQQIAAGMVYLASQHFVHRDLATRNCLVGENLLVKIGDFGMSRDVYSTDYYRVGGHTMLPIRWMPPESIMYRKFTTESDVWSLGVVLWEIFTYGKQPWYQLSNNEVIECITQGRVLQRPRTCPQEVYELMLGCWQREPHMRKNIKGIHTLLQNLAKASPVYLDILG
UniProt Q16288, 32-839 limits assumed: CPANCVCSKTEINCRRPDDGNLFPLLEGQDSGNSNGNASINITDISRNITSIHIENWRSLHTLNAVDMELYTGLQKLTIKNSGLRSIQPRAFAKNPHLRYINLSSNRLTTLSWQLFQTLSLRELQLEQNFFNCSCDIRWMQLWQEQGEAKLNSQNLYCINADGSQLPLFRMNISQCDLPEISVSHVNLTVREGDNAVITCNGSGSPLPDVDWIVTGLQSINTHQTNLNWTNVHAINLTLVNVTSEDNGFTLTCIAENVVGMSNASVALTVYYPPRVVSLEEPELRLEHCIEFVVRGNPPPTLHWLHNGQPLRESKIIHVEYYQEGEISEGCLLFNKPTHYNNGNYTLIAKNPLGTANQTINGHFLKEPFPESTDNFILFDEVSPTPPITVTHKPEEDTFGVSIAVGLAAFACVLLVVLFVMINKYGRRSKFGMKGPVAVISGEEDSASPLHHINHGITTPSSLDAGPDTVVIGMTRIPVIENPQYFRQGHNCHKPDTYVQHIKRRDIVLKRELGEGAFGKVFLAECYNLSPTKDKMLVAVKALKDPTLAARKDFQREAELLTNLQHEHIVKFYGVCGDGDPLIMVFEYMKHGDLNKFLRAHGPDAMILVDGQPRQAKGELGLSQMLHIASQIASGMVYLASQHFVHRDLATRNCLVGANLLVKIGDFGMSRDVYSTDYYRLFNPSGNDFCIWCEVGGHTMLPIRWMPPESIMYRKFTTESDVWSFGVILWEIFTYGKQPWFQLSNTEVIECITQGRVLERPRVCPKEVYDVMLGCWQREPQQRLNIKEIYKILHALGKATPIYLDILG

Assays:
TRKA in KM12 cells = TRKA in KM12 cells (Homo sapiens, UniProt P04629+P06753); assay: TRKA autophosphorylation and signalling in KM12 cells (immunoblot); details: 1 nM, 2 h
[1] = test system: RET in TT, MZ-CRC-1, TPC-1, Lc-2/ad cells; assay: RET autophosphorylation in cancer cells (immunoblot); details: 1 nM, 2 h; MTC, PTC and NSCLC cells
VEGFR2 [2] = assay: In vivo VEGFR2 phosphorylation in tumours; details: 0.3, 1 or 3 mg/Kg; 8505C and HCT116 tumours
VEGFR2 [3] = molecular target: VEGFR2 (Mus musculus, UniProt P35918); assay: In vivo VEGFR2 phosphorylation in tumours; details: 0.3 mg/kg; Pz-1 sensitive and resistant RET or TRKA-expressing NIH3T3 tumours
[4] = test system: NCOA4-RET / CCDC6-RET and NCOA4-RET mutants; details: RET V804M; cited from earlier work
A549 cells (KRAS G12S) = assay: Growth curves, cell proliferation; details: read-out: IC50 dose nM (95% CI), A549, NSCLC
[5] = test system: HCT-116 cells (KRAS G38A); assay: Growth curves, cell proliferation; details: read-out: IC50 dose nM (95% CI), HCT-116, CRC
TT cells (RET C634W) = assay: Growth curves, cell proliferation; details: read-out: IC50 dose nM (95% CI), MTC
KM12 cells (TPM3-TRKA) = assay: Growth curves, cell proliferation; details: read-out: IC50 dose nM (95% CI), KM12, CRC
[6] = test system: B-CPAP cells (BRAF V600E); assay: Growth curves, cell proliferation; details: read-out: IC50 dose nM (95% CI), PTC
[7] = test system: MZ-CRC-1 cells (RET M918T); assay: Growth curves, cell proliferation; details: read-out: IC50 dose nM (95% CI), MZ-CRC-1, MTC
Calu-1 cells (KRAS G12C) = assay: Growth curves, cell proliferation; details: read-out: IC50 dose nM (95% CI), Calu-1, NSCLC
[8] = test system: PC-9 cells (HER1 delLREA); assay: Growth curves, cell proliferation; details: read-out: IC50 dose nM (95% CI), PC-9, NSCLC
8505C cells (BRAF V600E) = assay: Growth curves, cell proliferation; details: read-out: IC50 dose nM (95% CI), ATC
[9] = test system: Nthy-ori-3-1 cells (SV40 LT); assay: Growth curves, cell proliferation; details: read-out: IC50 dose nM (95% CI); Nthy-ori-3-1, SV40 LT
[10] = test system: Lc-2/ad cells (CCDC6-RET); assay: Growth curves, cell proliferation; details: read-out: IC50 dose nM (95% CI), NSCLC
[11] = test system: TT, MZ-CRC-1, TPC-1, Lc-2/ad, KM12 cells; assay: Cell viability, CellTiter 96 (MTS); details: 1 nM, single dose, 48 and 72 h
[12] = test system: SHC and ERK1/2 phosphorylation; assay: SHC and ERK1/2 phosphorylation in RET/TRKA-negative cells; details: up to 100 nM; B-CPAP, 8505C, A549, PC-9, Calu-1, HCT-116 (Nthy-ori-3-1: ERK partially inhibited at 100 nM)
[13] = test system: NIH3T3 NCOA4-RET, NCOA4-RET G810R, TPM3-TRKA, TPM3-TRKA G595R cells; assay: Proliferation and phosphorylation in transformed NIH3T3 fibroblasts; details: NIH3T3 transfectants
[14] = molecular target: RET phosphorylation in NIH3T3 NCOA4-RET tumours (Homo sapiens, UniProt P07949); assay: Time course in vivo target inhibition, RET; details: single oral dose 0.3, 1 and 3 mg/kg; partially restored after 24 h
[15] = test system: MZ-CRC-1 cells xenografts; assay: Xenograft tumour growth; details: 28 days
NIH3T3 NCOA4-RET tumours = assay: Xenograft tumour growth; details: 16 days
HCT-116 xenografts = assay: Xenograft tumour growth; details: 37 days
8505C tumours = assay: Xenograft tumour growth; details: 25 days
KM12 cells xenografts = assay: Xenograft tumour growth; details: 16 days
TT cells xenografts = assay: Xenograft tumour growth; details: 28 days
[16] = test system: NIH3T3 NCOA4-RET G810R tumours; assay: Xenograft tumour growth; details: 16 days
NIH3T3 TPM3-TRKA tumours = assay: Xenograft tumour growth; details: 17 days
[17] = test system: NIH3T3 TPM3-TRKA G595R tumours; assay: Xenograft tumour growth; details: all the doses (0.3, 1, 3 mg/Kg) oral daily, 17 days
[18] = test system: RET-/TRKA-driven and negative cancer cell lines; assay: Cell cycle analysis by flow cytometry; details: 48 h
TRKB = TRKB (Homo sapiens, UniProt Q16620); assay: TRK binding assay (DiscoveRx), TRKB
[19] = test system: Ba/F3 cells expressing TPM3-TRKA, CCDC6-RET, RET C634R or RET M918T; assay: IL-3-independent growth of transformed Ba/F3; details: read-out: IC50, IL-3-independent growth, range over TPM3-TRKA
TRKC = TRKC (Homo sapiens, UniProt Q16288); assay: TRK binding assay (DiscoveRx), TRKC; details: read-out: IC50 (abstract)
[20] = molecular target: TRKA phosphorylation in NIH3T3 TPM3-TRKA tumours (Homo sapiens, UniProt P04629+P06753); assay: Time course in vivo target inhibition, TRKA
[21] = test system: TPM3-TRKA and TPM3-TRKA mutants; assay: TRKA phosphorylation in transfected HEK 293 T cells (immunoblot); details: 2 h
[22] = test system: human cancer cells carrying either RET- or TRKA oncoproteins; assay: Proliferation of human cancer cells, summary of the abstract; details: read-out: IC50 proliferation
VEGFR2 [23] = details: VEGFR2 kinase; cited from earlier work
TRKA = TRKA (Homo sapiens, UniProt P04629); assay: TRK binding assay (DiscoveRx), TRKA; details: read-out: IC50 (abstract)
[24] = test system: NCI-60 Human Tumour Cell Lines; assay: NCI 60 five-dose screen; type: cell-based
[25] = test system: NCOA4-RET / CCDC6-RET and NCOA4-RET mutants; assay: RET phosphorylation in transfected HEK 293 T cells (immunoblot); details: for resistance to Pz-1 (phosphorylation): HEK 293 T, 2 h

Cn1cc(-c2ccc3c(c2)ncn3-c2ccc(CC(=O)Nc3cc(C(C)(C)C)on3)cc2)cn1
TRKA autophosphorylation and SHC and ERK1/2 phosphorylation (TRKA in KM12 cells): inhibited
RET autophosphorylation [1]: strongly inhibited
VEGFR2 and downstream signalling in tumours (VEGFR2 [2]): displayed inhibition of VEGFR2 but not of SHC, MAPK or PLCγ
VEGFR2 inhibition in tumours (VEGFR2 [3]): already detectable
effect of gatekeeper mutation on Pz-1 activity [4]: did not impair Pz-1 activity
IC50 (A549 cells (KRAS G12S)): > 100 nM
IC50 [5]: > 100 nM
IC50 (TT cells (RET C634W)): 1 nM and 0.77 nM
IC50 (KM12 cells (TPM3-TRKA)): 1.6 nM and 1.66 nM
IC50 [6]: > 100 nM
IC50 [7]: 1 nM and 0.72 nM
IC50 (Calu-1 cells (KRAS G12C)): > 100 nM
IC50 [8]: > 100 nM
IC50 (8505C cells (BRAF V600E)): > 100 nM
IC50 [9]: > 100 nM
IC50 [10]: 1 nM and 0.52 nM
cell metabolic activity [11]: modestly reduce
SHC and ERK1/2 phosphorylation [12]: No inhibition of SHC and ERK1/2 phosphorylation
activity against NCOA4-RET relative to TPM3-TRKA [13]: about 5 folds
time up to which RET was inhibited [14]: 12 h
tumour growth ([15]; 0.3 mg/Kg oral daily): 36 % of the vehicle control
tumour growth ([15]; 1 mg/Kg oral daily): 15 % of the vehicle
tumour growth (NIH3T3 NCOA4-RET tumours; 0.3 mg/Kg oral daily): completely block
tumour growth (NIH3T3 NCOA4-RET tumours; 1 mg/Kg oral daily): Complete tumour growth inhibition
tumour growth (NIH3T3 NCOA4-RET tumours; 3 mg/Kg oral daily): Complete tumour growth inhibition
tumour growth reduction (HCT-116 xenografts; 0.6 mg/Kg oral daily): 60 % reduction
tumour growth reduction (HCT-116 xenografts; 3 mg/Kg oral daily): 50 % reduction
tumour growth inhibition (8505C tumours; 0.3 mg/Kg oral daily): did not exert any detectable inhibition
tumour growth (8505C tumours; 1 mg/Kg oral daily): 50 % of the vehicle control
tumour growth (8505C tumours; 3 mg/kg oral daily): 50 % of the vehicle control
tumour growth (KM12 cells xenografts; 0.6 mg/Kg oral daily): 35 % of the control
tumour growth (KM12 cells xenografts; 3 mg/Kg oral daily): 15 % of the control
tumour growth (TT cells xenografts; 0.3 mg/Kg oral daily): < 20 % of the vehicle control
tumour growth (TT cells xenografts; 1 mg/Kg oral daily): 15 % of the vehicle
tumour growth ([16]; 0.3 mg/Kg oral daily): remained virtually unaffected
tumour growth ([16]; 1 mg/Kg oral daily): remained virtually unaffected
reduction of tumour volume ([16]; 3 mg/Kg oral daily): about 50%
tumour growth (NIH3T3 TPM3-TRKA tumours; 0.3 mg/Kg oral daily): but not TPM3-TRKA tumour growth
tumour growth (NIH3T3 TPM3-TRKA tumours; 1 mg/Kg oral daily): Complete tumour growth inhibition
tumour growth (NIH3T3 TPM3-TRKA tumours; 3 mg/Kg oral daily): Complete tumour growth inhibition
tumour growth [17]: remained unaffected
cell cycle distribution ([18]; 1 nM, RET-driven TPC-1, TT, MZ-CRC-1, Lc-2/ad): reduction of the percentage of cells in S and G2/M phases and an increase of cells in G0/G1 phase
cell cycle distribution ([18]; 10 nM, KM12 (not in TRKA-negative HCT-116)): strong reduction of S and G2/M phases
cell cycle distribution ([18]; up to 100 nM, RET-negative B-CPAP, 8505C, Nthy-ori-3-1, A549, PC-9, Calu-1): basically unaffected
Kd (TRKB): < 1 nM and 0.78 nM
IC50 (TRKB; read-out: IC50 (abstract)): < 1 nM
IC50 [19]: 0.3 to 1.6 nM
IC50 (TRKC): < 1 nM
time after which TRKA phosphorylation was fully restored ([20]; single oral dose 0.3 mg/Kg): 8 h
time after which TRKA phosphorylation was fully restored ([20]; single oral dose 1 and 3 mg/Kg): 12 h
reduction of drug sensitivity (phosphorylation) ([21]; TPM3-TRKA F589L): about 10 folds
resistance to Pz-1 (phosphorylation) ([21]; TPM3-TRKA G595R): > 30 fold
effect of mutation on sensitivity to Pz-1 ([21]; TPM3-TRKA G667C): did not affect sensitivity to Pz-1
IC50 [22]: 1 nM
IC50 (VEGFR2 [23]): < 1 nM
IC50 (TRKA): < 1 nM
growth inhibition ([24]; KM12, only such cell line of the panel): strong growth inhibition at a low (2 digit) nM dose
lethality ([24]; NCI 60 panel): No significant lethality was observed
resistance to Pz-1 (phosphorylation) ([25]; NCOA4-RET G810R): > 25 fold
resistance to Pz-1 (phosphorylation) ([25]; NCOA4-RET G810S): > 5 fold
sensitivity of RET mutants to Pz-1 inhibition ([25]; NCOA4-RET Y806N, L730I/V, E732K, V738A, S904F and all tested mutants except G810): remained sensitive to Pz-1 inhibition
IC50 ([25]; read-out: half-maximal inhibitory Pz-1 dose, NCOA4-RET G810S, Fig. 6 and data not shown): 5 nM
